# Apparent affinities of Ab-14 variants for a coronavirus HR2 peptide

From the AlphaSeq antibody data of Engelhart et al. 2022 (doi:10.1038/s41597-022-01779-4), copy in the FLAb collection.

Target peptide (SARS-CoV-2 spike, HR2 region): PDVDLGDISGINAS

Parent scFv Ab-14: VH joined to VL by the linker GGGGSGGGGSGGGGS. Changes lie in the heavy chain CDRs alone.
VH: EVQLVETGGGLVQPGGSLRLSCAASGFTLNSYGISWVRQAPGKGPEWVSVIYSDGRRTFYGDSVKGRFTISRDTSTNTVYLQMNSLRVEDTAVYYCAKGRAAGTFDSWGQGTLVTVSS
VL: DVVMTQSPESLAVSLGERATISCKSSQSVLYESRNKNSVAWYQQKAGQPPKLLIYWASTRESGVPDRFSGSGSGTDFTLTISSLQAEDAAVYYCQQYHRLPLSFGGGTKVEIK

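The parent was found by panning a naive human phage display library on the peptide. In library AAYL49, one, two or three CDR residues were substituted; doubles and triples were drawn at random. The assay is AlphaSeq: two haploid yeast populations carry antibody and antigen on their surface. The frequency of each diploid, read from paired DNA barcodes, reflects how well the two displayed proteins bind. Each replicate has its own calibration line, from reference interactions of the BCL2 family. Mating was done three times.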

Variants are written as CDR1, CDR2 and CDR3 of the heavy chain (limits as in the source). Parent: GFTLNSYGIS, VIYSDGRRTFYGDSVK, GRAAGTFDS. Scale: log10 of Kd in nM, estimated from mating counts; low values are strong binders. Where no diploid with the target was found in that replicate, the entry reads "ND": below detection, most likely a poor binder, though not proof of it. As a blank, each scFv also met three strains without target: over library AAYL49, 15% of these pairings were detected, typically at 4.06 and seldom below 2.83. For each scFv, signals with the empty controls are counted beside the result. Parent in this assay: reference entry 0.65, copy in this library 4.11 (one replicate of three).

With GFTLNSYGIS | VIYSDGRRTFYGYSVK | GGAAGTFPS the result was ND, ND, ND (controls 0 of 9).
With GFTLSSYGIS | VIYSDGRRTFYQDSVK | GRAATTFDS the result was 1.15, 1.08, 0.98 (controls 0 of 9).
With GFTLNSYGIS | VYYSDGRRTFYGDSGK | GRAAGTFDS the result was ND, 3.25, ND (controls 2 of 9).
With GFTYNSYGIS | VIYSDGRRTFYGYSVK | ERAAGTFDS the result was ND, 2.79, ND (controls 0 of 9).
With GFTLNYYGIS | VIYNDGRRTFYGDSAK | GRAAGTFDS the result was ND, ND, ND (controls 0 of 9).
With GFKLNSYGAS | VIYSDGRRTFYGDSVK | TRAAGTFDS the result was 3.82, ND, 4.32 (controls 3 of 9).
With GFTLNSYGIS | VIYSDGRRICYGDSVK | GRAAGTFDS the result was ND, ND, ND (controls 0 of 9).
With GFTLNSYGIS | VIYSDGRRTFYGDSVK | GRAAGTFDW the result was 1.82, 2.46, 1.97 (controls 0 of 9).
With GFTLNFYGIS | VIYSDGRRTFYGDSLK | GRAATTFDS the result was ND, ND, ND (controls 1 of 9).
With GFTLNSYYIS | VIYSDGRRTFYGDSVK | WRAAGTFDK the result was ND, ND, ND (controls 2 of 9).
With HFTLNSYGIS | VIMSDGRRTFYGDSVK | GRLAGTFDS the result was ND, ND, ND (controls 3 of 9).
With GFTLNPYGIS | VIYSDGRRTFTGDSVW | GRAAGTFDS the result was ND, ND, ND (controls 0 of 9).
With GFTLNSYGIS | VIYSDGRRTFYGDSVK | DRANGTFDS the result was ND, ND, ND (controls 2 of 9).
With GFTLNSYGIS | VIYSDGIRTFYGDSVK | GRASGTFDS the result was 2.25, 2.01, 2.70 (controls 0 of 9).
With GFTLNSYGIS | VIMSDGRRTFYGDSVK | GEAAGTMDS the result was 4.38, ND, ND (controls 1 of 9).
With GFVLNSYGIS | VIYGDGRRTFYGDSVK | GRAAGTFDS the result was ND, 2.62, 2.38 (controls 0 of 9).
With GFTLNSYGAS | VIYSDGNRTFYGDSNK | GRAAGTFDS the result was ND, ND, 4.93 (controls 3 of 9).
With GFTLNSYGIS | VIYSSGRRTFYGDSVW | GRAASTFDS the result was ND, 2.92, ND (controls 1 of 9).
With GFTLNSYGIS | VIYSDGRRTFYPDSVK | GRAATTWDS the result was ND, ND, ND (controls 0 of 9).
With GFTLNSYGIS | VSYSDDRRTFYGDSVK | GRAAGTFDS the result was 4.31, ND, ND (controls 2 of 9).
With GFTLNSYGIP | VIYSDGRRTFYGDEVE | GRAAGTFDS the result was ND, ND, ND (controls 0 of 9).
With GFTLNSYGIS | VIYWDGRRTFYGDSVK | GRACGTFDS the result was 1.84, 1.76, 2.37 (controls 1 of 9).
With GSTLNSYGIS | VIYSDGRRTFYGKSVK | GRAAGTFES the result was 3.75, 3.75, 5.36 (controls 2 of 9).
With GFTLNSYGIS | VIYHDGRRTFYFRSVK | GRAAGTFDS the result was ND, 4.04, ND (controls 2 of 9).
With GCTMNSYGIS | VIYSDGRRAFYGDSVK | GRAAGTFDS the result was ND, ND, ND (controls 0 of 9).
With GFTLNSYGIS | VIYSDGRRTFYGDSVK | GRAIGTFDS the result was 2.00, 2.68, 2.37 (controls 0 of 9).
With GFCLNSYGIS | VIYSDGRRTFYKDSVK | GRAAGVFDS the result was 2.02, 1.78, 2.34 (controls 0 of 9).
With GFTLNRYGIS | VIYSDGRRTFYGDSVK | YRFAGTFDS the result was 5.13, 3.38, ND (controls 8 of 9).
With GFTLNSYGIS | VIYSDGRRSFYGDSVK | GNAAGTFDS the result was 0.64, 0.96, 0.84 (controls 3 of 9).
With GFTLNSYAIS | VIYSDGRRTFYGDSVK | GRPAGTFDS the result was 3.74, ND, ND (controls 2 of 9).
With GFTLNSYEIS | VIYSDGRRTFYGDSVK | GRMAGTMDS the result was 4.20, 2.81, 2.50 (controls 0 of 9).
With GFTLNSYGIS | VIYSDGRRTFYGDSTK | GAAAGTRDS the result was 3.76, 3.06, 3.51 (controls 6 of 9).
With GFTLNSYGIS | VIYSDGRPTFYGDWYK | GRAAGTFDS the result was 5.55, ND, 6.66 (controls 8 of 9).
With GFTLNSYGIS | VIYSDGRRTFEGDSVN | GRAAGTGDS the result was ND, ND, ND (controls 1 of 9).
With GFTWNSYGIS | QIYSDGRRTFYGDSVK | GRAAWTFDS the result was ND, ND, ND (controls 1 of 9).
With GFQLESYGIS | VIYSDGRRDFYGDSVK | GRAAGTFDS the result was 1.89, 1.41, 1.58 (controls 2 of 9).
With GFTLNSYGIS | VIYSDGRRTFYGDSVK | GRAAGTFDA the result was 0.88, 1.08, 1.02 (controls 1 of 9).
With GFTLNSTGIS | VIYSDERRTFYGDSVK | GRAAGTFDS the result was ND, 3.96, ND (controls 2 of 9).
With GFTLNSYGIS | LIYVDGRRTFYGDSVK | GRAAGTFDS the result was ND, ND, ND (controls 0 of 9).
With GFTLNSYGIS | VIYPPGRRTFYGDSVE | GRAAGTFDS the result was 4.06, ND, ND (controls 1 of 9).
With GFTLNSYGIS | HIYSDGNRTFYGDSVK | GRAAGFFDS the result was ND, ND, ND (controls 1 of 9).
With GFTLNSYGIA | VIMSDGRRTFYGDSVK | GRAAGTKDS the result was ND, ND, ND (controls 0 of 9).

Extract of 4 entries:

For GFTLNSTGIS | VIYSDERRTFYGDSVK | GRAAGTFDS, the assay gave ND, 3.96, ND (controls 2 of 9).
For GCTMNSYGIS | VIYSDGRRAFYGDSVK | GRAAGTFDS, the assay gave ND, ND, ND (controls 0 of 9).
For GFTLSSYGIS | VIYSDGRRTFYQDSVK | GRAATTFDS, the assay gave 1.15, 1.08, 0.98 (controls 0 of 9).
For GFCLNSYGIS | VIYSDGRRTFYKDSVK | GRAAGVFDS, the assay gave 2.02, 1.78, 2.34 (controls 0 of 9).